# Values quoted from earlier work in PMC4932475, “Evaluation of P-Glycoprotein Inhibitory Potential Using a Rhodamine 123 Accumulation Assay” (Pharmaceutics, 2016).
# System: P-gp
# Details: ratio of highest versus lowest IC50 from five experimental measurements; ref Lee et al. [11]; cited from earlier work
compound,measurement,value
"COc1ccccc1OCCNCC(O)COc1cccc2[nH]c3ccccc3c12 (stereo not shown) [Carvedilol, carvedilol]",IC50 Range for P-gp Inhibition (-fold),168 -fold
